Laboratory results from BindingDB's records for PubMed 7908055 (Case Western Reserve University, 1994).

By UniProt entry, the sequences of proteins in these tests, tags left out.
UniProt P14842, whole entry: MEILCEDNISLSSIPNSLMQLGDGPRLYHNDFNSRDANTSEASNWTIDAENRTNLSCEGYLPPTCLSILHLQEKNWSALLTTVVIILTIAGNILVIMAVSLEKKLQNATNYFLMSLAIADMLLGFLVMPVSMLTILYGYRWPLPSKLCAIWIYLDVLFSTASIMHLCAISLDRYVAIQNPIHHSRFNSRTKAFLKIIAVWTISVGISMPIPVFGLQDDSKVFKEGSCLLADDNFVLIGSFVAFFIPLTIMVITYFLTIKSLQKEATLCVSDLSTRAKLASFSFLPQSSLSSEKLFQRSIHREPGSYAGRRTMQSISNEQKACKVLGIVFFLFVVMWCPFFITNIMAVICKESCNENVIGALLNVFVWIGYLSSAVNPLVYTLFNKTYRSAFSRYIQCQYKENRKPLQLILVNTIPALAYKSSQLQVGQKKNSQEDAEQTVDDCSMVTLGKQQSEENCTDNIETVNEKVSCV
UniProt P61169, whole entry: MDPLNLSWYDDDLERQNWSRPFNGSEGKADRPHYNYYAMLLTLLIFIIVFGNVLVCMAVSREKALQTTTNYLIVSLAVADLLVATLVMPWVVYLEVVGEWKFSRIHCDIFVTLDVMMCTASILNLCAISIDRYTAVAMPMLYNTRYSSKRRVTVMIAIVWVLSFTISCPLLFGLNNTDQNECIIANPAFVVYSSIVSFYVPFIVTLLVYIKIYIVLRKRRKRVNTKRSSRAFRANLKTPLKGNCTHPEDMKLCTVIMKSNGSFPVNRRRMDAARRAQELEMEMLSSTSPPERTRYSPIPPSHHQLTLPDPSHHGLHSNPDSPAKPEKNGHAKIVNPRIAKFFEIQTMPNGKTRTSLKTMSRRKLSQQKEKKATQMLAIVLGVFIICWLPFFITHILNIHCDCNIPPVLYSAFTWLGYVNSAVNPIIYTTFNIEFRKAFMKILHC

How the values were obtained:
[1] = target: T1, 5-hydroxytryptamine receptor 2C (Rattus norvegicus, UniProt P08909)
T1 sequence (P08909 whole entry): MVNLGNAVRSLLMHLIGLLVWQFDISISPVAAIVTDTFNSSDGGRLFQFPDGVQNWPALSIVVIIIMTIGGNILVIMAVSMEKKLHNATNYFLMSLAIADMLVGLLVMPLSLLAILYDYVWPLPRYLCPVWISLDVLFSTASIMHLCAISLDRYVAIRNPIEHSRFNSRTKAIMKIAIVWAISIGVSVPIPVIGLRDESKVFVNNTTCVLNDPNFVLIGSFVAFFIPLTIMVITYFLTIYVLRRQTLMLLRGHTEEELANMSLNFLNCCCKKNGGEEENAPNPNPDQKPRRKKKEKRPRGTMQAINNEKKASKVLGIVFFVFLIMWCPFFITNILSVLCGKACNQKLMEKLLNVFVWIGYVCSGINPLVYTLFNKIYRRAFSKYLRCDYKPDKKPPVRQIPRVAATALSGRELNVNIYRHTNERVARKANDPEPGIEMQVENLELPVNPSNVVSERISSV

[2] = target: 5-hydroxytryptamine receptor 2A (Rattus norvegicus, UniProt P14842)
D(2) dopamine receptor = D(2) dopamine receptor (Rattus norvegicus, UniProt P61169)

| SMILES | Ki [1] | Ki [2] | Ki (D(2) dopamine receptor) |
| --- | --- | --- | --- |
| CN1CCN(CCCN2c3ccccc3Sc3ccc(C(F)(F)F)cc32)CC1 | 100 nM | – | – |
| CN(C)CCOC1=Cc2ccccc2Sc2ccc(Cl)cc21 [2-Chloro-11-(2-(dimethylamino)ethoxy)dibenzo(b,f)thiepin] | – | 0.63 nM | 1 nM |
| CC1CCN(CCCC(=O)c2ccc(F)cc2)CC1 [CAS_3575-80-2] | – | 79.4 nM | – |
